“Also recorded” adds a separate entry of the source.
Tested on: Caco-2 cell monolayer
Experiment: Bidirectional transport (Papp) across Caco-2 cell monolayer
Type: in vitro ADME, human
Conditions: for Detection of compound in the receiving side: after incubation for 90 min, AP→BL and BL→AP; for Absorption designation: from Caco-2 Papp compared with propranolol and atenolol
Method: The Caco-2 cell monolayer permeability was carried out according to the previously reported method. Briefly, the Caco-2 cells were maintained in DMEM containing 10% FBS, 1% NEAA, 100 units/mL of penicillin, and 100 µg/mL of streptomycin, in a constant humidity atmosphere of 5% CO2 and 95% air at 37 °C. For confluence and differentiation, cells were seeded at a density of 1 × 10^5 cells/cm^2 into 12-well Transwell plates (insert diameter 12 mm, pore size 3.0 μm, membrane growth area 1.12 cm^2, Costar® #3402) and were allowed to grow for 21 days before the permeation experiment. On day 21, the monolayers with TEER values > 500 Ω·cm^2 were qualified for the transport experiment. The transport study was initiated by the careful removal of the culture medium from AP and BL sides of the inserts. Caco-2 monolayers were rinsed twice with pre-warmed HBSS and were incubated by pre-warmed HBSS for 30 min at 37 °C. Stock solutions of assayed compounds 1–10 were prepared in DMSO and diluted to 50 µM with HBSS. […] The assayed solutions (50 µM) were added to the AP side (0.5 mL, for absorption transport) or BL side (1.5 mL, for efflux transport) of the inserts, while the receiving chamber contained the corresponding volume of HBSS. Incubation was performed at 37 °C for 90 min, with shaking at 50 rpm. Samples were collected from the inserts and lyophilized. The dried sample was then sonicated with the appropriate volume of MeOH, followed by centrifugation at 15,000× g for 10 min. The supernatant was filtered through a 0.45 μm filter and injected into HPLC system for quantitative analysis.
The AP to BL or BL to AP permeability coefficient (Papp) value of each compound was calculated based on the following equation:Papp = (dQ/dt) × (1/A) × (1/C0) (cm/s)(1) where dQ/dt is the rate of the appearance of the test compound on the receiver compartment (μmol/s), C0 is the initial test compound concentration on the donor compartment (μmol/mL), and A is the surface area of Caco-2 monolayer (cm^2).
While shaking the samples (37 °C, 50 rpm), 1.3 mL aliquots were taken from BL side or 0.45 mL aliquots were taken from AP side at 30 min intervals from […].
After shaking the samples (37 °C, 50 rpm) in a shaking water bath for 90 min, aliquots were collected as described above.

| Substance | Papp values (bidirectional) (Caco-2 monolayer, both directions) | Detection of compound in the receiving side | Absorption designation |
| --- | --- | --- | --- |
| liquiritin apioside [Compound 10] | < 0.1 ×10⁻⁶ cm/s | below the lower limit of detection; also recorded: not detected | poorly absorbed; also recorded: hardly permeate; also recorded: very poorly absorbed |
| isoliquiritin apioside [Compound 8] |  | below the lower limit of detection; also recorded: not detected | poorly absorbed; also recorded: very poorly absorbed |

Reference: PMC6151599, “Intestinal Absorption of Triterpenoids and Flavonoids from Glycyrrhizae radix et rhizoma in the Human Caco-2 Monolayer Cell Model” (Molecules : A Journal of Synthetic Chemistry and Natural …, 2017)
